Data: PMC7949113

By UniProt entry, the sequences of proteins in these tests, tags left out. Residues count along the entry.
UniProt P61073, whole entry: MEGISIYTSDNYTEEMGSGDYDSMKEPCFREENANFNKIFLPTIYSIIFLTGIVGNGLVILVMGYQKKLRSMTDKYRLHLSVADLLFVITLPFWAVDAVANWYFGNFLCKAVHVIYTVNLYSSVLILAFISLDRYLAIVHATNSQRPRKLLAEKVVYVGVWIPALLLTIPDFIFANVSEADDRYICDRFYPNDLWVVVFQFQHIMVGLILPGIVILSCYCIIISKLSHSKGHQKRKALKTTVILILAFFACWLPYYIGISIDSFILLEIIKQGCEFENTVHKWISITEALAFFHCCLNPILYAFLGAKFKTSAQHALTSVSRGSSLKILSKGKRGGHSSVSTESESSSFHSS
UniProt P48061, 22-89: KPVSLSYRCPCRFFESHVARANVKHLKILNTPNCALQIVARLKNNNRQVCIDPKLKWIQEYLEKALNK

Biological target: chemokine receptor CXCR4 (human (endogenous in DU145, PC3 and HEK293)) (UniProt P61073)

Substance: stromal cell-derived factor 1α (from UniProt P48061-2 22-89) (ligand)
- EC50 of ERK1/2 activation (phospho-ERK1/2 Western blot) by SDF1α, 5 min, DU145 cells: 3.5 nM
- EC50 of ERK1/2 activation (phospho-ERK1/2 Western blot) by SDF1α, 5 min, HEK293 cells: 5.8 nM
- EC50 of ERK1/2 activation (phospho-ERK1/2 Western blot) by SDF1α, 5 min, PC3 cells: 6.3 nM
